Laboratory results published in publication PMC6063412, “Development of monoclonal anti-PDGF-CC antibodies as tools for investigating human tissue expression and for blocking PDGF-CC induced PDGFRα signalling in vivo” (PLoS ONE, 2018).

Protein sequences, listed by entry. Tags and fused reporters are not part of them. Residues count along the entry.
UniProt Q9NRA1, 230-345: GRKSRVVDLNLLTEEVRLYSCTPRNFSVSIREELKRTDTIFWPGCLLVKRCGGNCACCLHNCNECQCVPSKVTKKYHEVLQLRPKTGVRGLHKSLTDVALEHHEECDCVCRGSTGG

Biological target: T1, recombinant human PDGF-CC core domain protein (activated PDGF-CC, growth factor domain) (human, UniProt Q9NRA1)
T1 construct: platelet-derived growth factor C, human, core domain (growth factor domain, GFD) released from the N-terminal CUB domain; also called hPCc; active PDGF-CC
Experiment: immunoblot; human, mouse and rat PDGF-CC, reduced and non-reduced, probed with ch6B3

B1: chimeric anti-PDGF-CC antibody ch6B3 (antibody, V domains shown)
VH: QVQLQQSGVEVARPGASVKLSCKASGYTFGSYGITWVRQRTGQGLEWIGEIYPRSGKTYYNEKFKGKATLTADTSSSTVYMELRSLTSEDSAVYFCAREGYGYDGGYFDYWGQGTTLTVSS
VL: DIVMTQSPSSLAMSVGQKVTMSCKSSQSLLNSRNQKNYLAWYQQKPGQSPKLLVYFASTRESGVPDRFTGSGSGTDFTLTISSVQAEDLAVYYCQQHYSTPLTFGAGTKLELK
  binding result: binds
